This note sets out measurements from ChEMBL document CHEMBL1123465, “Buspirone analogues. 2. Structure-activity relationships of aromatic imide derivatives” (J Med Chem, 1986).

Protein sequences, listed by entry. Tags and fused reporters are not part of them. Lines headed by an entry give the natural chain unless they say otherwise; changes in a name come on top.
UniProt P28564: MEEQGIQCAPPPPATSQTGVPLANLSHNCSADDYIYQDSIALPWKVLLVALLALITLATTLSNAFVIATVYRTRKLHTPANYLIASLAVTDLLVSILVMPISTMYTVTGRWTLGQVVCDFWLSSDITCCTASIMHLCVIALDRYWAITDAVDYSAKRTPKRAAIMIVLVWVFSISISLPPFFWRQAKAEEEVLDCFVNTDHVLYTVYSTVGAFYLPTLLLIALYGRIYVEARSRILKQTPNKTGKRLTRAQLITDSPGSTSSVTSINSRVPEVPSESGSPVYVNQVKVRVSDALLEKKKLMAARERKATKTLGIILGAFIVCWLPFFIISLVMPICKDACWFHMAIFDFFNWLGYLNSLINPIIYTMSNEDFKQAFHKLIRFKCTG
UniProt P30940: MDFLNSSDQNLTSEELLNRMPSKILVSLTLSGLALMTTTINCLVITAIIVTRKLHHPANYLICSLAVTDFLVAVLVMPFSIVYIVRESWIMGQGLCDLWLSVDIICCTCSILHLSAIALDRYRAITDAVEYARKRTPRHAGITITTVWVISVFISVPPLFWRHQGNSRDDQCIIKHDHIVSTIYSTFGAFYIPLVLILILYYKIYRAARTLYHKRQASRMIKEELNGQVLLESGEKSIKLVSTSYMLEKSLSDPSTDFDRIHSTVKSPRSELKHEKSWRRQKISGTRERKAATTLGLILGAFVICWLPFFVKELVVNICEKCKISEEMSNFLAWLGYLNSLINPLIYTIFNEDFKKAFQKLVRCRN
UniProt P19327: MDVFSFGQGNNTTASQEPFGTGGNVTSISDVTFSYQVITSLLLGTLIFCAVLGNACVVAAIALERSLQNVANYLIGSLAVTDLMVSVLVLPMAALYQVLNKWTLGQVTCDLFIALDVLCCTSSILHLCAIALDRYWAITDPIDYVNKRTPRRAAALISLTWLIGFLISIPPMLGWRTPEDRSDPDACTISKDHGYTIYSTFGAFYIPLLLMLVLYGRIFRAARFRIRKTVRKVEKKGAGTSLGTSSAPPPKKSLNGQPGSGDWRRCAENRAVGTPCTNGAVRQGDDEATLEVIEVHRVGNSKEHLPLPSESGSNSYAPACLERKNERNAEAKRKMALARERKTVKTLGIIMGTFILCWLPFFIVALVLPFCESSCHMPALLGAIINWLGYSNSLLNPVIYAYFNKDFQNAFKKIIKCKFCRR
UniProt P28565: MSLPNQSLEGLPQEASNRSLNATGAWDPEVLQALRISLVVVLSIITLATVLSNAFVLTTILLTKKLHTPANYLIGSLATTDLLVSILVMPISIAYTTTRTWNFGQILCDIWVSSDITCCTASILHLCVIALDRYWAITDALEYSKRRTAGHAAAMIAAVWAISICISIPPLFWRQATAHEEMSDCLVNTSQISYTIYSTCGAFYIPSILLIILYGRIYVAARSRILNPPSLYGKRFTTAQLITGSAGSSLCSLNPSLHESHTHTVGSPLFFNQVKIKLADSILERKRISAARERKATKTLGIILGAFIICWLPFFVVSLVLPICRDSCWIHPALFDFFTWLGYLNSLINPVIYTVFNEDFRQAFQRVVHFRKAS

The target in the test is Serotonin 1 (5-HT1) receptor (Rattus norvegicus, UniProt P28564+P30940+P19327+P28565). Description: Binding affinity towards hippocampus 5-hydroxytryptamine 1 receptor was measured using radioligand [3H]5-HT. Format: tissue-based.

Usually IC50 stands for the point on the concentration scale where inhibition reaches its midpoint. Low readings indicate higher potency, high ones lower potency. The compound `CC1(C)CC(=O)N(CCCCN2CCN(c3ncccn3)CC2)C(=O)C1.Cl` [GEPIRONE HYDROCHLORIDE] gave an IC50 of 670 nM.
